Measurements as given in publication PMC7817688, “Identification of 3-chymotrypsin like protease (3CLPro) inhibitors as potential anti-SARS-CoV-2 agents” (Communications Biology, 2021).

What follows are compounds tested against SARS-CoV-2 3CLpro enzyme (Severe acute respiratory syndrome coronavirus 2, UniProt P0DTD1).
Assay type: biochemical

Row | SMILES | percent enzymatic activity, AVG [%] | percent enzymatic activity, individual values
1 | NC(=O)c1ncn([C@@H]2O[C@H](CO)[C@@H](O)[C@H]2O)n1 [Ribavirin] | 96.507 | 92.1775% and 102.652% and 94.6914%
2 | C[C@H]1C[C@@H]2[C@H]([C@@H](O)C[C@@]3(C)[C@H]2CC[C@]3(O)C(=O)CO)[C@@]2(C)C=CC(=O)C=C12 [Methylprednisolone] | 107.7 | 115.127% and 102.748% and 105.224%
3 | CC(C)CN(C[C@@H](O)[C@H](Cc1ccccc1)NC(=O)O[C@H]1CCOC1)S(=O)(=O)c1ccc(N)cc1 [Amprenavir] | 90.4762 | 88.9401% and 88.0184% and 94.4701% (2×)

“And” between values parts separate entries of the source, which are not always exact repeats. Equal entries are not always repeated.
